One experiment addresses PI3K (p110α/p85α) (Homo sapiens, UniProt P42336). As to the kind of experiment: PI3K activity assay (ADP Hunter Plus). The settings on record: read-out: PI3K alpha activity, IC50 (semi-quantitative class).
The target of the next experiment is mTOR (Homo sapiens, UniProt P42345). As to the kind of experiment: mTOR assay (LanthaScreen kinase activity assay). The format is biochemical. The settings on record: read-out: mTOR activity, IC50 (semi-quantitative class).
The target in a further experiment is PIM-1 (Homo sapiens, UniProt P11309). As to the kind of experiment: PIM-1 biochemical assay (ADP Hunter). The settings on record: read-out: PIM-1 activity, IC50 (semi-quantitative class); PIM1.

Amino acid sequences for entries named in this document (tags omitted). Residues count along the entry.
UniProt P42336, whole entry: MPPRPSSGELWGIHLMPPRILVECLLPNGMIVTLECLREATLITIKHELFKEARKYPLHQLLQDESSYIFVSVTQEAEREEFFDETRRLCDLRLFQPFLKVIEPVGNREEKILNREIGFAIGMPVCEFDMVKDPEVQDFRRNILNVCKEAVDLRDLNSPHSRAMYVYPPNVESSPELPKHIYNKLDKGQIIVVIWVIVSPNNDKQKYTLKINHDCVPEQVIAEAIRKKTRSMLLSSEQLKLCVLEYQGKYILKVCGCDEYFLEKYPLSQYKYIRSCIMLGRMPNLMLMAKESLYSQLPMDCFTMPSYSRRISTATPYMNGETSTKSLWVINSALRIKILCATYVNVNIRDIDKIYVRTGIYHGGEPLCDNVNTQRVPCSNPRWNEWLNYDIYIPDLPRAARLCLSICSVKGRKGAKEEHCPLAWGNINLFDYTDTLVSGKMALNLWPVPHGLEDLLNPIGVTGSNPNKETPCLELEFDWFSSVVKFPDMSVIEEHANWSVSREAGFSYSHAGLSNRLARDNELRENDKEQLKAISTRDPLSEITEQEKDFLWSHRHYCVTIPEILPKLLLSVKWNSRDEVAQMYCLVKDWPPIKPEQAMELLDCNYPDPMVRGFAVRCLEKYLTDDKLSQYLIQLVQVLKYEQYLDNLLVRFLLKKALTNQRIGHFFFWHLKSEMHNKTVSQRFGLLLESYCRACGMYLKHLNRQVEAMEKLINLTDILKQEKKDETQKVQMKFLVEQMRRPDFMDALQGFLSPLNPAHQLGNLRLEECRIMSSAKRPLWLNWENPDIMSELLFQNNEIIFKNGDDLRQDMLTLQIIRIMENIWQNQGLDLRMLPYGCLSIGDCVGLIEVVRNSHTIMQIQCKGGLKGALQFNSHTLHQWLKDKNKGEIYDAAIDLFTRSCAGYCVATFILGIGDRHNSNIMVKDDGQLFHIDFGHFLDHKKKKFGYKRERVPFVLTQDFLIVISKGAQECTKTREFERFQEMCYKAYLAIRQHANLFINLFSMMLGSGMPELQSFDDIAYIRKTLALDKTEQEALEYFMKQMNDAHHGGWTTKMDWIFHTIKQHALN
UniProt P42345, 1360-2549 limits assumed: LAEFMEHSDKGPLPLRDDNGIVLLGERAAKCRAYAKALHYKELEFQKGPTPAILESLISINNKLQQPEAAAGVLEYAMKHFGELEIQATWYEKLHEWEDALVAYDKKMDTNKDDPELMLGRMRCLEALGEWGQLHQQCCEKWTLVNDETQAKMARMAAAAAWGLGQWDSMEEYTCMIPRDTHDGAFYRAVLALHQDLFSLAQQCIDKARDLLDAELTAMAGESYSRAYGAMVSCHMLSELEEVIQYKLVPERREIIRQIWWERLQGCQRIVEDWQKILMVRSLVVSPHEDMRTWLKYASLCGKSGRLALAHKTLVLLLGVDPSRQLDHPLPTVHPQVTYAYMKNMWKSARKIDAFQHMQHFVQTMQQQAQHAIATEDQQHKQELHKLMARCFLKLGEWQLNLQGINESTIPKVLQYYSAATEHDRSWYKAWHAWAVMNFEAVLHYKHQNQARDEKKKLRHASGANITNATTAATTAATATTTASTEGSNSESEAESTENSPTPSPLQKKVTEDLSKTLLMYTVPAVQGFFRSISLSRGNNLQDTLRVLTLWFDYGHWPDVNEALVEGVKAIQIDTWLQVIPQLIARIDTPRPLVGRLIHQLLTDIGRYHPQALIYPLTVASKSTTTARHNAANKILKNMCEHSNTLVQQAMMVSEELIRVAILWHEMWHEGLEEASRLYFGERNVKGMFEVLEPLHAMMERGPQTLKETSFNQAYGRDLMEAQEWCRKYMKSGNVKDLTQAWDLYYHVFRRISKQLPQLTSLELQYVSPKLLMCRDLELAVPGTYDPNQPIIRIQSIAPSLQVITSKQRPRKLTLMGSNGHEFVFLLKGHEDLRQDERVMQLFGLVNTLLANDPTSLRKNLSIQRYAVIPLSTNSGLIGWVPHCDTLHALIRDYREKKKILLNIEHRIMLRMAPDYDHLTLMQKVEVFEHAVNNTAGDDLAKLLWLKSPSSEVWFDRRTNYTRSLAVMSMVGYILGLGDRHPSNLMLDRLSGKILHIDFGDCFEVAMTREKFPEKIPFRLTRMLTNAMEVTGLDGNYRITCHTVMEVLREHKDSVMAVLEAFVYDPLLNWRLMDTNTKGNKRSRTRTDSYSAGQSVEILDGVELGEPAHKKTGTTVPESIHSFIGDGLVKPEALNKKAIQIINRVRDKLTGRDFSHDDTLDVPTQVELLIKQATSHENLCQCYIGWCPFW
UniProt P11309, whole entry: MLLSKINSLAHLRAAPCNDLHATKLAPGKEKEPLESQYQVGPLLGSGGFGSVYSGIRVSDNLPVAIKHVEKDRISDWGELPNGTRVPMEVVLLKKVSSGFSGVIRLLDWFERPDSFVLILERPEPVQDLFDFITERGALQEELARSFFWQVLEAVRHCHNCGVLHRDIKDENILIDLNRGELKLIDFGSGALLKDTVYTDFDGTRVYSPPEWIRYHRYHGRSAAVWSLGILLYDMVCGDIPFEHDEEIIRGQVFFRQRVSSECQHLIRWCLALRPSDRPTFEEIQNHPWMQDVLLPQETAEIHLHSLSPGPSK
UniProt P27986, whole entry partner: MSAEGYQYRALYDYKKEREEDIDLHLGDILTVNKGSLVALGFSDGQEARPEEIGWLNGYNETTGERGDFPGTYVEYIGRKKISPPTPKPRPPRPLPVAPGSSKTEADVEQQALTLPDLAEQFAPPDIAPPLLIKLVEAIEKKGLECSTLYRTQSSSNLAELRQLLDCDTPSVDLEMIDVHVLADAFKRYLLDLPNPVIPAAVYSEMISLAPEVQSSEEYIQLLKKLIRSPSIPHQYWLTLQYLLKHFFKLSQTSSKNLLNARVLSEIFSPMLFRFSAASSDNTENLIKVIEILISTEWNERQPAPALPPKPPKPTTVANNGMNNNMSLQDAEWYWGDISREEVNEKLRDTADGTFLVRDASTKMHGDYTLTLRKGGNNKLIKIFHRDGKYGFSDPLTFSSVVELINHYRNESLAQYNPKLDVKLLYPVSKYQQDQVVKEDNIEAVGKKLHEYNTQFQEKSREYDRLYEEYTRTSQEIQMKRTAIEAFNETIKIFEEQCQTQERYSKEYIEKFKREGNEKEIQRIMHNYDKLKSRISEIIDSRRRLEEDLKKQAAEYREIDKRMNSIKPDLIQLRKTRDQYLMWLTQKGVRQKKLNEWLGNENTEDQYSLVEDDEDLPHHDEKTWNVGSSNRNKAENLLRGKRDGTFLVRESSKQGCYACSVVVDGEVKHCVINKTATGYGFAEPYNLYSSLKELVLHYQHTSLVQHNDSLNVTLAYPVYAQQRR

pIC50: −log10 of the molar value. Some results are limits rather than exact numbers.

Here are results for two compounds from US9808466B2, “Macrocyclic compounds as protein kinase inhibitors” (Fundación Centro Nacional de Investigaciones Oncologicas …, priority 2011, dated 2017).

With `COc1ncc2cc1NS(=O)(=O)c1cccc(c1)C(=O)NCc1cncc(c1)-c1ccnc3[nH]c-2cc13`, the pIC50 was 6.00 to 7.00 at PI3K (p110α/p85α), less than 6.00 at mTOR and 6.00 to 7.00 at PIM-1.
On to `COc1ncc2cc1NS(=O)(=O)c1cccc(c1)C(=O)NCC(=O)NCc1cncc(c1)-c1cnc3sc-2nn13`, for which the results for the pIC50 at PI3K (p110α/p85α), at mTOR and at PIM-1 were 6.00 to 7.00, less than 6.00 and 6.00 to 7.00, respectively.
